Results published in patent US8309322B2, “Diterpene modulator of macrophage phagosomal maturation” (priority 2009, dated 2012).

The chains behind the UniProt entries cited, without tags or fusion partners. Where a name states a change or a piece, a line headed by the entry shows the natural chain unless it says otherwise.
UniProt P9WJ61: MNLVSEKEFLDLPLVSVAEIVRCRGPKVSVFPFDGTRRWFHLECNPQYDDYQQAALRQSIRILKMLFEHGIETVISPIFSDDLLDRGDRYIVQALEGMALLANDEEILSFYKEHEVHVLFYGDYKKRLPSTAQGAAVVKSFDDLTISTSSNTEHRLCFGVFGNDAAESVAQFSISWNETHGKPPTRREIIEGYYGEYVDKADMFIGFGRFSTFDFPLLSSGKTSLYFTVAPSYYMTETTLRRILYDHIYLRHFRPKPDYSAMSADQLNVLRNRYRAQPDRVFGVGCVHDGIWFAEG

Target: MtEDS (Mycobacterium tuberculosis, UniProt P9WJ61)
Details: read-out: apparent KM for HPP

## C/C(=C\COP(=O)(O)OP(=O)(O)O)CC[C@@]1(C)[C@@H]2CCCC(C)(C)C2=CC[C@@H]1C [HPP, halimadienyl diphosphate]
  Km: 12 µM
